Data on 13 compounds can be found in US9932309B2, “2-oxo-3,4-dihydropyridine-5-carboxylates and their use” (UNIVERSITE DE LILLE 2 DROIT ET SANTE, priority 2014, dated 2018).

In one experiment the target is T1, hTGR5 (Homo sapiens, UniProt Q8TDU6).
T1 construct: expressed in transfected cells; host or cells: HEK293 cells, transiently co-transfected with the pCRE TA-Luciferase reporter
T1 sequence (Q8TDU6 1-330): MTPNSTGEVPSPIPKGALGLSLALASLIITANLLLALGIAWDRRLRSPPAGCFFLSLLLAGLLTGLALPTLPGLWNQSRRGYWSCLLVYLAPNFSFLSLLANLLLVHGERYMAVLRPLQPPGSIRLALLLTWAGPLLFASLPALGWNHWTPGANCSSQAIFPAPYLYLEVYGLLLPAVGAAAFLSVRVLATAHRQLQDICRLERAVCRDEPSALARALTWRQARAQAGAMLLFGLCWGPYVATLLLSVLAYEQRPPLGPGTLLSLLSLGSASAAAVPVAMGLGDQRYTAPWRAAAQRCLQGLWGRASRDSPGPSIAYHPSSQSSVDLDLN
Kind of experiment: TGR5/CRE Luciferase Assay (hTGR5). The following applies: percentage of the 10 μM LCA value; HEK 293 cells transfected with hTGR5. The format is cell-based.

The target of a further experiment is T2, mTGR5 (Mus musculus, UniProt Q80SS6).
T2 construct: expressed in transfected cells; host or cells: HEK293 cells, transiently co-transfected with the pCRE TA-Luciferase reporter
T2 sequence (Q80SS6 1-329): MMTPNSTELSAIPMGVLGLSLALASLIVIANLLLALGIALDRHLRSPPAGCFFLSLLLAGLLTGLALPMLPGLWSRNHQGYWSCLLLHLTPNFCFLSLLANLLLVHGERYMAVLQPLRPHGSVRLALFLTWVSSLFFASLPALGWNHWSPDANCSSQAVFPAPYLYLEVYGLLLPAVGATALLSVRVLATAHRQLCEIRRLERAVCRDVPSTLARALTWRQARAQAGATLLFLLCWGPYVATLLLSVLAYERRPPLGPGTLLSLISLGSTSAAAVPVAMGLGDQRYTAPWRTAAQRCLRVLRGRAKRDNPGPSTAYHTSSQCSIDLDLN
The experiment can be described thus: TGR5/CRE Luciferase Assay (mTGR5). The note with it: percentage of the 10 μM LCA value; HEK 293 cells transfected with mTGR5. The format is cell-based.

`COCCN1C(=O)CC(c2ccc(Cl)cc2)C(C(=O)OCc2ccc(-c3ccccc3)cc2)=C1C` (centres unmarked) [Example 108, (4-phenylphenyl)methyl 4-(4-chlorophenyl)-1-(2-methoxyethyl)-6-methyl-2-oxo-3,4-dihydropyridine-5-carboxylate]: the hTGR5 % trans on hTGR5 worked out at 72%. For the same compound, at mTGR5, the mTGR5 % trans amounted to 72%. On hTGR5, `COCCN1C(=O)CC(c2ccc(Cl)cc2)C(C(=O)OCc2cccc(C(F)(F)F)c2)=C1C` (centres unmarked) [Example 91, [3-(trifluoromethyl)phenyl]methyl 4-(4-chlorophenyl)-1-(2-methoxyethyl)-6-methyl-2-oxo-3,4-dihydropyridine-5-carboxylate] returned a hTGR5 % trans of 78%. In addition, on mTGR5, the mTGR5 % trans is 83%. On hTGR5, `COCCN1C(=O)CC(c2ccc(Cl)cc2)C(C(=O)OCc2ccccc2OC)=C1C` (centres unmarked) [Compound 64, (2-methoxyphenyl)methyl 4-(4-chlorophenyl)-1-(2-methoxyethyl)-6-methyl-2-oxo-3,4-dihydropyridine-5-carboxylate] showed a hTGR5 % trans of 82%. `COCCN1C(=O)CC(c2ccc(Cl)cc2)C(C(=O)OCc2ccc3ccccc3c2)=C1C` (centres unmarked) [Example 106, 2-naphthylmethyl 4-(4-chlorophenyl)-1-(2-methoxyethyl)-6-methyl-2-oxo-3,4-dihydropyridine-5-carboxylate] yielded a hTGR5 % trans on hTGR5 of 83%. The mTGR5 % trans on mTGR5 is reported as 96%. Regarding `COCCN1C(=O)CC(c2ccc(Cl)cc2)C(C(=O)OCc2cccc(C)c2)=C1C` (centres unmarked) [Example 99, m-tolylmethyl 4-(4-chlorophenyl)-1-(2-methoxyethyl)-6-methyl-2-oxo-3,4-dihydropyridine-5-carboxylate], the mTGR5 % trans on mTGR5 is 67%.

`CC1=C(C(=O)OCc2ccccc2)C(c2ccc(Cl)cc2)CC(=O)N1C` (centres unmarked) [Compound 17, 4-(4-Chloro-phenyl)-1,2-dimethyl-6-oxo-1,4,5,6-tetrahydro-pyridine-3-carboxylic acid benzyl ester] came in with a hTGR5 % trans at hTGR5 of 72%. At mTGR5, this compound returned a mTGR5 % trans of 67%.

As to `COCCN1C(=O)CC(c2ccc(Cl)cc2)C(C(=O)OCc2ccccc2)=C1C` (centres unmarked) [Compound 37, Benzyl 4-(4-chlorophenyl)-1-(2-methoxyethyl)-6-methyl-2-oxo-3,4-dihydropyridine-5-carboxylate], the hTGR5 % trans on hTGR5 came to 75%. Besides, the mTGR5 % trans at mTGR5 is 78%. As for `COc1ccccc1COC(=O)C1=C(C)N(C[C@H]2CCCO2)C(=O)C[C@H]1c1ccc(Cl)cc1` (racemic) [Compound 67, (2-methoxyphenyl)methyl (4S)-4-(4-chlorophenyl)-6-methyl-2-oxo-1-[[(2R)-tetrahydrofuran-2-yl]methyl]-3,4-dihydropyridine-5-carboxylate], at hTGR5, the hTGR5 % trans is 101%. At hTGR5, `CC1=C(C(=O)OCc2ccccc2)C(c2ccc(Cl)cc2F)CC(=O)N1` (centres unmarked) [Compound 15, benzyl 4-(4-chloro-2-fluoro-phenyl)-6-methyl-2-oxo-3,4-dihydro-1H-pyridine-5-carboxylate] came in with a hTGR5 % trans of 49%.

`COc1ccc(C2CC(=O)NC(C)=C2C(=O)OCc2ccccc2)cc1` (centres unmarked) [Compound 6, 4-(4-Methoxy-phenyl)-2-methyl-6-oxo-1,4,5,6-tetrahydro-pyridine-3-carboxylic acid benzyl ester]: the hTGR5 % trans on hTGR5 is listed as 19%. Moreover, on mTGR5, the mTGR5 % trans turned out to be 11%. As for `COCCN1C(=O)CC(c2ccc(Cl)cc2)C(C(=O)OCc2ccccc2C)=C1C` (centres unmarked) [Example 98, o-tolylmethyl 4-(4-chlorophenyl)-1-(2-methoxyethyl)-6-methyl-2-oxo-3,4-dihydropyridine-5-carboxylate], the hTGR5 % trans on hTGR5 worked out at 91%. The same compound showed a mTGR5 % trans at mTGR5 of 86%. As to `CC1=C(C(=O)OCc2ccccc2)C(c2ccc(Cl)cc2)CC(=O)N1CC1CC1` (centres unmarked) [Compound 43, Benzyl 4-(4-chlorophenyl)-1-(cyclopropylmethyl)-6-methyl-2-oxo-3,4-dihydropyridine-5-carboxylate], the mTGR5 % trans at mTGR5 is 78%. Still for that read-out and setting: the value for `COCCN1C(=O)CC(c2ccc(Cl)cc2)C(C(=O)OCc2ccc(C(F)(F)F)cc2)=C1C` (centres unmarked) [Example 92, [4-(trifluoromethyl)phenyl]methyl 4-(4-chlorophenyl)-1-(2-methoxyethyl)-6-methyl-2-oxo-3,4-dihydropyridine-5-carboxylate] was 59%.
